This assay has as its target ArsH (Pden_3133; N-His6-ArsH) (Paracoccus denitrificans, UniProt A1B6S0). Briefly: NADPH oxidation at […] nm, extra initial velocity over FMN-only rate, bisubstrate fit. To be noted: read-out: KM^PhAsO(OH)2 (apparent); 50 μM FMN fixed, NADPH varied; 0.1 M sodium phosphate pH 7.0, 30 °C; ping-pong.

By UniProt entry, the sequences of proteins in these tests, tags left out. Residues count along the entry.
UniProt A1B6S0, 1-235 limits assumed: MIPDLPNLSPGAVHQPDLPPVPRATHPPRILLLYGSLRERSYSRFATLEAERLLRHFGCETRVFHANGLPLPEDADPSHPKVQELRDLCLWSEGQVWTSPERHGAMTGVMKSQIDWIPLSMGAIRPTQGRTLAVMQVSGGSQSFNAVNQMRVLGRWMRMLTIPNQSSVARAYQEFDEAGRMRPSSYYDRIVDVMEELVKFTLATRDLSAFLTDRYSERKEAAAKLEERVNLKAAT

Among the data in article PMC9137774, “The ArsH Protein Product of the Paracoccus denitrificans ars Operon Has an Activity of Organoarsenic Reductase and Is Regulated by a Redox-Responsive Repressor” (Antioxidants, 2022) are Km values, retold here.

Turning to `O=[As](O)(O)c1ccccc1`, the Km (as a rule, the concentration of substrate that gives half-maximal velocity) was determined as 177 µM.
